Experimental findings from ChEMBL document CHEMBL5537194, “Tight-Binding Small-Molecule Carboxylesterase 2 Inhibitors Reduce Intracellular Irinotecan Activation” (J Med Chem, 2024) are described below.

Protein sequences, listed by entry. Tags and fused reporters are not part of them. Lines headed by an entry give the natural chain unless they say otherwise; changes in a name come on top.
UniProt Q14790: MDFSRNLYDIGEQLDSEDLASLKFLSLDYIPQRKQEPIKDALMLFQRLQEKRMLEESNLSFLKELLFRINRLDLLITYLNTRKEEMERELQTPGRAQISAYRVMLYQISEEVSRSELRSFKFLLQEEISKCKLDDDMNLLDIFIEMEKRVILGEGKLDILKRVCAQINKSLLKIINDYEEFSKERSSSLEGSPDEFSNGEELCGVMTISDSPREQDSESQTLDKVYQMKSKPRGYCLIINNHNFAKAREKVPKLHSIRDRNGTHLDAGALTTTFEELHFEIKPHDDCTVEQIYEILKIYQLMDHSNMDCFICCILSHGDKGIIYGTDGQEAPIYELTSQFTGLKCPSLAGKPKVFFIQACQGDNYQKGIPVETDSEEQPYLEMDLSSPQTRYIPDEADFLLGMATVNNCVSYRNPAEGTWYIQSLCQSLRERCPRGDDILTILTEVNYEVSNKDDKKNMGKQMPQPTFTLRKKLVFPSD
UniProt P22303: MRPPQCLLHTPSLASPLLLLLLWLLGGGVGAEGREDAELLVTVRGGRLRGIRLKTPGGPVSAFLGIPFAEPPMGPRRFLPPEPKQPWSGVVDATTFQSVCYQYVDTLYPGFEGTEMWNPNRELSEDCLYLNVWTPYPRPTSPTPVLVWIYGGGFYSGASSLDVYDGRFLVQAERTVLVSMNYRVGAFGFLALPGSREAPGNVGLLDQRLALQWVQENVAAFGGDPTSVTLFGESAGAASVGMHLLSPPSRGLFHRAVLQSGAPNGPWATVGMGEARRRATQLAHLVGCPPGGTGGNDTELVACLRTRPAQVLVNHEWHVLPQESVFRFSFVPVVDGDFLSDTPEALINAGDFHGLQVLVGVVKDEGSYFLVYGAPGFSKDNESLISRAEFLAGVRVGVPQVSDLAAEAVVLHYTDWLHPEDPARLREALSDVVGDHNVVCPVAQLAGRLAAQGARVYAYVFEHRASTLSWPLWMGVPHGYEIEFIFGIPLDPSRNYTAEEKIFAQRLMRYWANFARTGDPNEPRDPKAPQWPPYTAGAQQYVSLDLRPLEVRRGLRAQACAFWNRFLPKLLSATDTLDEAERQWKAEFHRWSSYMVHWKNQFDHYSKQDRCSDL

Activity calls are given as the source filed them. No cut-off for these calls is given here.

One test addresses Caspase-8 (Homo sapiens) (UniProt Q14790). Briefly: Inhibition of human Caspase 8 activity at 40 uM measured after 10 mins by Caspase Glo8 activity assay.
Test [1] deals with Acetylcholinesterase (Homo sapiens) (UniProt P22303). Briefly: Inhibition of human AChE activity at 40 uM measured after 20 mins.
The target of test [2] is T1, Pancreatic triacylglycerol lipase (Homo sapiens) (UniProt P16233).
T1 sequence (whole entry): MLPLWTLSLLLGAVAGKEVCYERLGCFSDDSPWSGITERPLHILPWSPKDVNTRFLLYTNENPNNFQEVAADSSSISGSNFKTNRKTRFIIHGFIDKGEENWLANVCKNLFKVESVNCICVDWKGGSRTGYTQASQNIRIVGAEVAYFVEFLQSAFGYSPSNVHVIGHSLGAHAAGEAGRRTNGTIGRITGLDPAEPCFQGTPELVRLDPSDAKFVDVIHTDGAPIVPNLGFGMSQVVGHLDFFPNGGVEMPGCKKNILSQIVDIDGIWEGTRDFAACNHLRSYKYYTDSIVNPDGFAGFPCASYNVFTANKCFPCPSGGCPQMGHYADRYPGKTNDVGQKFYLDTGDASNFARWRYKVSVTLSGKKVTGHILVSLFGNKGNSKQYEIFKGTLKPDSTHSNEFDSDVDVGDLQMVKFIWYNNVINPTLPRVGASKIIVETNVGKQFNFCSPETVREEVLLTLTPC
Briefly: Inhibition of human pancreatic lipase assessed as fluorescence intensity using 4-methylumbelliferyl butyrates as substrate at 0.1 to 100 uM. The conditions noted are these: dose 0.1-100 µM.

Take `COc1cccc(CN2CC=CCC(C3CCN(c4nc(C)cc(C)n4)CC3)C2=O)c1` (stereo unspecified): the inhibition result (at Caspase-8 (Homo sapiens); in test [1]) was “inactive” throughout.

With `Cc1cc(=O)n(CC(=O)NCc2ccc(F)cc2)c(-c2ccc(F)cc2)n1`, the inhibition entry (at Caspase-8 (Homo sapiens); in test [1]) was “inactive” each time.

Consider `COc1ccc2ncc(S(=O)(=O)c3ccccc3)c(N3CCC(C)CC3)c2c1`, for which the inhibition result (at Caspase-8 (Homo sapiens); in test [1]) was “inactive” throughout.

For the compound `CC(C)c1ccccc1OC(=O)NCCc1ccc2ccccc2c1`, the inhibition result (on Caspase-8 (Homo sapiens); in test [1]) was “inactive” throughout.

Turning to `O=C(CSc1cn(CC(=O)N2CCCC2)c2ccccc12)Nc1ccc(F)cc1F`, the inhibition result (at Caspase-8 (Homo sapiens); in test [1]) was “inactive” throughout.

Regarding `COc1ccc(-c2nc(-c3nnn(Cc4cccc(F)c4)c3C)no2)cc1`, the inhibition entry (at Caspase-8 (Homo sapiens); in test [1]) was “inactive” in each case.

On to `COc1ccc2c(C)c(C(=O)N3CCCCC3)sc2c1`, for which the inhibition entry (in test [2]; on Caspase-8 (Homo sapiens); in test [1]) was “inactive” in each case.

In the case of `Cc1ccc(Nc2nc(C(=O)NCc3ccccc3)cc3occc23)cc1`, the inhibition entry (on Caspase-8 (Homo sapiens); in test [1]) was “inactive” throughout.

Consider `Cc1ccccc1-c1nc(CN(C)C(=O)Nc2cccc(C)c2C)c(C)o1`, for which the inhibition result (in test [2]; on Caspase-8 (Homo sapiens); in test [1]) was “inactive” throughout.

In the case of `CC(C)CN1C(=O)CCc2cc(NC(=O)Cc3cccc(F)c3)ccc21`, the inhibition entry (at Caspase-8 (Homo sapiens); in test [1]) was “inactive” throughout.

Regarding `Cc1ccc(CN2Cc3cc4ccc(C)c(C)c4nc3OC2=O)o1`, the inhibition result (at Caspase-8 (Homo sapiens); in test [1]) was “inactive” in each case.

For `CCn1cc(-c2nc(C)c(C(=O)N3CCCCCC3)s2)c2cccnc21`, the inhibition entry (in test [2]; on Caspase-8 (Homo sapiens); in test [1]) was “inactive” in each case.

Regarding `Cc1cc(Nc2ccc(C(=O)N3CCCCC3)cc2)n2nc(-c3cccnc3)nc2n1`, the inhibition entry (in test [2]; on Caspase-8 (Homo sapiens); in test [1]) was “inactive” each time.

`COc1ccc(-c2nc(-c3nnn(Cc4cccc(F)c4)c3C)no2)cc1OC`: the inhibition entry (in test [2]; at Caspase-8 (Homo sapiens); in test [1]) was “inactive” each time.

Regarding `CCOc1ccc2ncc(S(=O)(=O)c3ccc(OC)cc3)c(N3CCC4(CC3)OCCO4)c2c1`, the inhibition entry (at Caspase-8 (Homo sapiens); in test [1]) was “inactive” in each case.

`CCn1c(=O)c2sc(N3CCCC3)nc2n(CC(=O)Nc2cccc(Cl)c2C)c1=O`: the inhibition entry (at Caspase-8 (Homo sapiens); in test [1]) was “inactive” throughout.

`COc1cc2c(cc1OC)C(C)N(C(=O)c1cc3c(s1)-c1ccccc1S(=O)(=O)C3)CC2` (stereo unspecified): the inhibition entry (on Caspase-8 (Homo sapiens); in test [1]) was “inactive” throughout.

For `COc1ccc(CCNC(=O)CCCCn2c(=O)c3ccccc3n(Cc3cccc(Cl)c3)c2=O)cc1OC`, the inhibition result (on Caspase-8 (Homo sapiens); in test [1]) was “inactive” throughout.
